Reference: patent US6602852B1, “Basic peptides and pharmaceutical compositions containing same” (NST NeuroSurvival Technologies, Ltd., priority 1998, dated 2003)

Tests used:
apoptotic hepatocytes = settings: intravenous, no anti-Fas antibody
Description: All animals were killed 2 hr after administration of antibody followed by organ removal. Heart, lung and liver were collected.
Formalin fixed paraffin-embedded tissues were sectioned (5 μm) for staining with Hematoxylin/Eosin or other techniques.
Endogenous peroxidase activity was blocked by incubation with 3% H2O2.
After washing with PBS, staining was developed with 3,3-diaminobenzidine tetrahydrochloride (DAB), and counterstained with Hematoxylin.
Liver sections from different lobes were used for detection of stained apoptotic cells compared to normal cells.
The percentage of apoptotic cells in the fields was estimated by evaluating parallel sections stained with Hematoxylin/Eosin. Analysis was performed blindly, since the pathologist performing the histological evaluation was unaware of the assignment of mice to the treatment or control group.

Substance: Myristate-KKKKKRFSFKKSFKLSGFSFKKNKKK (SEQUENCE ID NO. 2)-(biotin) [NST302]
- apoptotic cells in liver sections of control animals injected with compound alone (apoptotic hepatocytes): No evidence of apoptotic cells
- liver staining 30, 60 and 90 minutes after injection (anti-Fas treated mice): slowly declined
- time of peak of liver staining after injection (mice treated with anti-Fas antibody): 15 to 20 min
- liver staining five minutes after injection (treated and untreated with anti-Fas antibody): early distribution
